The list shows a part of the results, in another mix than the full data. Calls of active or inactive are those of the source.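 How the source made its calls: active means activation above the mean over all tested compounds plus 3 SD (cut at about 30% in these data); inactive means the rest.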

Activation data for 27 compounds are collected here from PubChem BioAssay AID493008 (The Scripps Research Institute Molecular Screening Center, 2010).

This assay deals with Troponin I, cardiac muscle (Homo sapiens) + Troponin T, cardiac muscle (Homo sapiens) + Troponin C, slow skeletal and cardiac muscles (Homo sapiens) (UniProt P19429+P45379+P63316). The assay is described as follows: cardiac RTF calcium sensitivity activators, primary screen, biochemical, IANBD-TnC fluorescence, EC20 calcium (AID 493008).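 Further: rise in fluorescence read as greater calcium sensitivity of cardiac thin filaments.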 As to conditions: IANBD-labeled TnC RTF fluorescence at EC20 calcium; at 7.2 µM; hits give high values; 0% EC20 calcium, 100% full calcium.
As to `CS(=O)(=O)c1ccc(Cl)c(NC(=O)COC(=O)C(O)(c2ccccc2)c2ccccc2)c1`, the activation was inactive: -3.48%.
The figure for `O=[As](O)(O)c1cccnc1` is inactive: -2.42%; for `COc1cc(C(=O)NCC2(N3CCOCC3)CCCCC2)cc(Cl)c1OC(C)C` it is inactive: -3.63%; for `O=C(OC1CN2CCC1CC2)c1ccc(Cl)cc1` (configuration not stated) it is inactive: -0.88%.
As to `Cc1cccc(OCC(=O)OC2CN3CCC2CC3)c1` (configuration not stated), the activation was inactive: -0.89%.
For `O=[As](O)(c1cccc(O)c1)c1cccc(O)c1`, the activation was inactive: 2.77%.
Turning to `CCCOP(=S)(Nc1nc(N)cc(=O)[nH]1)OCCC`, the activation is inactive: 7.33%.
Regarding `Nc1cccc2c([As](=O)(O)O)cccc12`, the activation is inactive: 8.07%.
With `Cc1ccc(NCCc2c([N+](=O)[O-])cc([N+](=O)[O-])cc2[N+](=O)[O-])cc1`, the activation is inactive: 9.49%.
With `CCOP(=O)(Nc1cccc2ccccc12)OCC`, the activation was inactive: 4.32%.
Regarding `COc1cc(C2NCCC3(OCCO3)C2(C)C)cc(OC)c1OC` (configuration not stated), the activation is inactive: 6.24%.
For the compound `CS(=O)(=O)c1cc([N+](=O)[O-])c2no[n+]([O-])c2c1`, the activation was inactive: 2.52%.
As for `O=P(Nc1nccs1)(Oc1ccccc1)Oc1ccccc1`, the activation is inactive: -6.77%.
With `O=P(Nc1nccs1)(c1ccccc1)c1nc2ccccc2s1` (configuration not stated) the figure was inactive: 0.73%; with `CCOP1(=S)c2c(C)nn(CCC#N)c2N=C(c2ccccc2F)N1C` (configuration not stated), inactive: -5.99%.
In the case of `Nc1ccccc1[As](=O)(O)c1ccccc1`, the activation is inactive: 1.27%.
Turning to `O=C(O)COc1ccc([As](=O)(O)O)cc1[N+](=O)[O-]`, the activation is inactive: -7.49%.
The figure for `NC(=O)Nc1ccc([As](=O)(O)O)cc1` is inactive: 2.73%; for `CN(C(=O)Cc1ccc(Cl)c(Cl)c1)[C@H]1CC[C@@]2(CCCO2)C[C@@H]1N1CCCC1` it is inactive: 0.88%; for `O=[N+]([O-])c1ccc2c(c1)nnn2O` it is inactive: -4.82%.
The figure for `CN(C)C(=O)c1cc([N+](=O)[O-])cc2c1-c1c(cc([N+](=O)[O-])cc1[N+](=O)[O-])C2=O` is inactive: -1.43%; for `CCOP1(=S)c2c(C)nn(CCC#N)c2N=C(c2ccc(F)cc2)N1C` (configuration not stated) it is inactive: 9.14%; for `CN(C(=O)Cc1ccccc1)[C@@H]1CC[C@]2(CCCO2)C[C@H]1N1CCCC1` it is inactive: 4.05%.
With `N#CCCN(C(=O)COC(=O)C(O)(c1ccccc1)c1ccccc1)c1ccc(F)cc1` the figure was inactive: -7.58%; with `CC1CCC(C(C)C)C(OP(=O)(Nc2ccccn2)c2ccccc2)C1` (configuration not stated), inactive: 0.47%; with `Cc1ccc(C(=O)OC2CN3CCC2CC3)cc1` (configuration not stated), inactive: -2.28%.
Consider `Cc1nn(-c2ccccc2)c2c1P(=O)(N1CCOCC1)N(C)C(c1ccccc1)=N2` (configuration not stated), for which the activation was inactive: -3.93%.
